Values quoted from earlier work, collected in article PMC2908260 (Journal of nuclear medicine : official publication, Society …, 2010).

Conditions: other ^18F-labeled octreotide analogues

Substance: [^18F]fluoropropionyl octreotide
- log P: −0.07 ± 0.01
